Earlier results in patent US20210128584A1, “USE OF GLUCOCORTICOID RECEPTOR ANTAGONISTS FOR THE TREATMENT OF AMYOTROPHIC LATERAL SCLEROSIS” (Corcept Therapeutics Incorporated, priority 2008, published 2021).

System: Amyotrophic lateral sclerosis (ALS)
Conditions: ALS patients

In the case of `Nc1nc2ccc(OC(F)(F)F)cc2s1` [Riluzole], the prolongation of survival is given as “two to three”.
